Measured values published in PubChem BioAssay AID602229 (The Scripps Research Institute Molecular Screening Center, 2012).
The list shows a part of the results, in another mix than the full data. Calls of active or inactive are those of the source.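 How the source made its calls: active means inhibition above the mean of all tested compounds plus 3 SD (cut at about 70% in these data); inactive means the rest.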

Sequences of proteins named here, by UniProt entry; tags and fusion partners are left off. A change or cut given only in a name is not applied to a line headed by its entry.
UniProt Q9Y5X4: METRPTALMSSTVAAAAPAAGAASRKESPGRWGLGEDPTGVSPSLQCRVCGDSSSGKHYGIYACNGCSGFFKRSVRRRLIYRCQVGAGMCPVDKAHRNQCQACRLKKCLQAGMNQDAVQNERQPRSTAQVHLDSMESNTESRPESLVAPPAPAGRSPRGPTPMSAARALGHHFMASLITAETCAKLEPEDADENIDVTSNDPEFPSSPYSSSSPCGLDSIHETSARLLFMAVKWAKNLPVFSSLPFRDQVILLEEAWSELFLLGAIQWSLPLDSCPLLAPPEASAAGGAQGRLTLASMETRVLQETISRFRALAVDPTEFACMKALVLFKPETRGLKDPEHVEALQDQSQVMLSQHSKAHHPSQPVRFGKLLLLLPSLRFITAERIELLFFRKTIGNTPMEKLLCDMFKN

These compounds were tested against Photoreceptor-specific nuclear receptor (Homo sapiens) (UniProt Q9Y5X4) (assay: NR2E3 agonists in two-hybrid cells, primary screen, cell-based, luminescence, CHO-S, Gal4-NCOR/VP16-NR2E3 (AID 602229;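 further: 0% = DMSO with NR2E3 transfected cells and 100% = cells lacking NR2E3 construct; higher means lower luciferase signal from less NR2E3 corepressor binding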)). Settings: luciferase, at 3.98 µM, active compounds read high.

Compound	inhibition of corepressor binding
CCN(N=Nc1nonc1N)c1nonc1N	inactive: -16.5%
CN1CCCC(OC(=O)C(c2ccccc2)c2ccccc2)C1 (stereo unspecified)	inactive: -10.3%
Clc1ccc(Cl)c(NC2=NCC(CBr)S2)c1 (stereo unspecified)	inactive: -10.6%
Cc1ccc(OP(=O)(Nc2nccs2)Oc2ccc(C)cc2)cc1	inactive: 16.5%
COc1ccccc1OP(=O)(Nc1ccc(C)cn1)Oc1ccccc1OC	inactive: -8.95%
Cc1ccc(N/C(=N/P(=O)(N2CCOCC2)N2CCOCC2)N2CCOCC2)cc1	inactive: 6.21%
CN(C(=O)Cc1ccc(Cl)c(Cl)c1)[C@H]1CCCC[C@H]1N1CCCC1	inactive: -9.72%
NC(=O)c1cc([N+](=O)[O-])cc([N+](=O)[O-])c1N	inactive: -16.7%
O=[N+]([O-])C1C(O)C(O)C([N+](=O)[O-])C(O)C1O (stereo unspecified)	inactive: 4.95%
O=C(NC(Sc1ccncn1)C(Cl)(Cl)Cl)c1ccccc1 (stereo unspecified)	inactive: -3.03%
Oc1ccccc1CNc1ccccn1	inactive: 14.8%
Nc1cc(N)c2nonc2c1[N+](=O)[O-]	inactive: -3.51%
CC(C)CC(=O)NC(Sc1ccc(Cl)cc1)C(Cl)(Cl)Cl (stereo unspecified)	inactive: -31.4%
CCc1nc2c(n1)c1c(non1O)c1c2no[n+]1[O-]	inactive: -4.57%
O=[N+]([O-])c1cc([N+](=O)[O-])c(CCNc2ccccc2)c([N+](=O)[O-])c1	inactive: -10.6%
Cc1ccc(NP(=O)(Oc2ccccc2)Oc2ccccc2)nc1	inactive: -2.42%
O=[N+]([O-])c1cccc2n[nH]nc12	inactive: 9.57%
CC(=O)N1C2C3N(C(C)=O)C1C1N(C(C)=O)C(C(N1C(C)=O)N3C(C)=O)N2C(C)=O	inactive: -17%
COc1ccc(C2=NCC(CBr)S2)cc1 (stereo unspecified)	inactive: -8.09%
CC1CCN(C(=O)Oc2c(Cl)cc(Cl)c3cccnc23)CC1	inactive: -18.9%
c1cc(-c2nn[nH]n2)ccc1-c1nn[nH]n1	inactive: -10.2%
CN(C)C(=O)OCCc1n(C)cc[n+]1C	inactive: -2.81%
CC(C)c1nc(Nc2ccccc2)n(P(=O)(N(C)C)N(C)C)n1	inactive: 8.68%
CC(C)=N/N=C(\N)N[N+](=O)[O-]	inactive: -19.7%
CCN(/C(=N/P(=O)(N1CCOCC1)N1CCOCC1)N1CCOCC1)c1ccc(OC)cc1	inactive: -9.41%
C[N+]1=C2C=CC=CC=C2SC12C([N+](=O)[O-])=CC([N+](=O)[O-])=C[C-]2[N+](=O)[O-] (stereo unspecified)	active: 98.4%

Compound	inhibition of corepressor binding
Nc1ccc([As](=O)(O)c2ccc(N)cc2)cc1	inactive: 1.39%
O=C(Nc1cc([As](=O)(O)O)ccc1O)c1ccccc1	inactive: -4.24%
O=P1(N(CCCl)CCCl)OCCCS1 (stereo unspecified)	inactive: 9.21%
O=C(O)CNc1ccc([As](=O)(O)O)cc1	inactive: -6.48%
COC(=O)C1(C)COP(=O)(Nc2ccccc2)OC1 (stereo unspecified)	inactive: -8.04%
O=[N+]([O-])c1cccc(NC2=NCC(CBr)S2)c1 (stereo unspecified)	inactive: 20.9%
O=[N+]([O-])c1ncn(CCn2ncnc2[N+](=O)[O-])n1	inactive: -8.61%
CC(C)(C)C(=O)NC(Sc1ccncn1)C(Cl)(Cl)Cl (stereo unspecified)	inactive: -1.96%
C[C@H]1OP(=O)(Oc2ccccc2)[C@H](O)[C@H](O)[C@H]1N=[N+]=[N-] (stereo partly specified)	inactive: 9.25%
O=P(Nc1nc2ccccc2s1)(c1ccccc1)c1ccccc1	inactive: -17.5%
O=P(Nc1ccccn1)(c1ccc(Br)cc1)c1ccc(Br)cc1	inactive: -12.4%
CN(C)C1(CNC(=O)c2ccc(Cl)c(S(N)(=O)=O)c2)CCCCC1	inactive: -6.2%
COc1ccc(N)c([N+](=O)[O-])c1[N+](=O)[O-]	inactive: -25.2%
Nc1ccc(CCCCOc2ccccc2)cc1	inactive: -45.4%
O=C(OC1CN2CCC1CC2)c1cccc(Cl)c1 (stereo unspecified)	inactive: -5.57%
C(Cc1nn[nH]n1)Cc1nn[nH]n1	inactive: 10.5%
Nc1ccc([As](=O)(O)c2ccc([N+](=O)[O-])cc2)cc1	inactive: 14.8%
O=[As](O)(c1ccccc1)c1ccc(O)cc1	inactive: 11.9%
O=[N+]([O-])c1ccc(O)c(/C=N/Nc2ccc([N+](=O)[O-])cc2[N+](=O)[O-])c1	inactive: -25.1%
O=[N+]([O-])c1ncn(CCn2cnc([N+](=O)[O-])n2)n1	inactive: 3.86%
CC(=O)NC(SC(=S)N(C)C)C(Cl)(Cl)Cl (stereo unspecified)	active: 100%
c1nnnn1CCn1cnnn1	inactive: -5.21%
CC(C)C(=O)NC(Sc1ccccc1)C(Cl)(Cl)Cl (stereo unspecified)	inactive: 27.9%
O=P(Nc1nccs1)(c1ccccc1)c1ccccc1	inactive: -11.8%
CC(C)(C)C(=O)NC(Sc1ccccc1)C(Cl)(Cl)Cl (stereo unspecified)	inactive: -17.8%
CCc1cc(O)c([N+](=O)[O-])c(C)c1[N+](=O)[O-]	inactive: -13%

Compound	inhibition of corepressor binding
CCOc1ccc(C2=NCC(CBr)S2)cc1 (stereo unspecified)	inactive: -19.1%
O=P1(Nc2nc3ccc(Cl)cc3s2)COc2ccccc2O1 (stereo unspecified)	inactive: -21.6%
CC(=O)Nc1ccc(Oc2c([N+](=O)[O-])cc([N+](=O)[O-])cc2[N+](=O)[O-])cc1	inactive: 0.01%
CC(=O)Nc1ccc([As](=O)(O)O)c(O)c1	inactive: -12.9%
C[C@H]1OP(=O)(Oc2ccccc2)C[C@@H]2O[C@@H]21 (stereo partly specified)	inactive: -7.02%
C[C@@H]1C=CCP(=O)(Oc2ccccc2)O1 (stereo partly specified)	inactive: 2.71%
Cc1ccccc1CN(C)C(=O)COC(=O)C(O)(c1ccccc1)c1ccccc1	inactive: 2.37%
COC(=O)C1(C)COP(=O)(NCc2ccccc2)OC1 (stereo unspecified)	inactive: -7.29%
CC(=O)c1ccc(N2CC2c2ccncc2)cc1 (stereo unspecified)	inactive: -5.27%
N#C/C(=C\c1ccc(N(CCBr)CCBr)cc1)C(N)=O	inactive: 0.42%
O=P1(N(CCCl)CCCl)OCCC2CCCCN21 (stereo unspecified)	inactive: -4.92%
Cc1ccc(NP(=O)(Oc2cccc(C)c2)Oc2cccc(C)c2)nc1	inactive: 4.72%
c1ccc(-c2nn[nH]n2)c(-c2nn[nH]n2)c1	inactive: -19.6%
CCNC(=S)/N=C(\N)N[N+](=O)[O-]	inactive: -30.6%
O=C(NC1CCS(=O)(=O)C1)NP(=S)(Oc1ccccc1)Oc1ccccc1 (stereo unspecified)	inactive: -32.2%
O=c1c2cc([N+](=O)[O-])ccc2[nH]c2c([N+](=O)[O-])cc([N+](=O)[O-])cc12	inactive: -8.9%
CN(C)C(=O)Oc1noc2ccccc12	inactive: 5.71%
CC(NC(=O)COC(=O)C(O)(c1ccccc1)c1ccccc1)c1ccccc1 (stereo unspecified)	inactive: -1.1%
Cc1ccccc1OP(=O)(Nc1ccccn1)Oc1ccccc1C	inactive: -9.6%
CCC(=O)N1C2C3N(C(=O)CC)C1C1N(C(=O)CC)C(C(N1C(=O)CC)N3C(=O)CC)N2C(=O)CC	inactive: -21.8%
O=C(OC1CN2CCC1CC2)c1ccccc1 (stereo unspecified)	inactive: -33%
Cc1ccc(OP(=O)(Nc2ccccn2)Oc2ccc(C)cc2)cc1	inactive: -0.23%
CC(=O)NC(SC(=S)N(CC(C)C)CC(C)C)C(Cl)(Cl)Cl (stereo unspecified)	inactive: -41.8%
COC(=O)c1cc2c(s1)N=C(c1ccccc1)N(C)P2(=O)N1CCOCC1 (stereo unspecified)	inactive: -33.8%
